The conditions of this data set: PBS, 37° C., dialysis cassette 10,000 MWCO; Leu-Gly-Gly adduct amount by 1H-NMR, exponential approximation.
Regarding “mPEG (40k)-PhTA4 (4CB)-LGG [compound (41)]”, the “degradation half-life (t1/2)” value was 149 h.
Next, mPEG (10k)-BzTA4-LGG [compound (39)]: 110 h; mPEG (20k)-BzTA4-LGG [compound (38)]: 98.4 h.
The result for “mPEG (40k)-PhTA4 (4CB2MO)-LGG [compound (42)]” reads 122 h; that for “mPEG (20k)-PhTA4 (4CB)-LGG [compound (40)]”, 154 h.
